# Some of the results follow. Results with a measured potency or affinity are listed apart. The source made the active and inactive calls. No stated cut-off is given here; in the data, active means activation above about 50% (passing the limit was not always enough); inactive means the rest.
# The chains behind the UniProt entries cited, without tags or fusion partners. Where a name states a change or a piece, a line headed by the entry shows the natural chain unless it says otherwise.
# UniProt P41145: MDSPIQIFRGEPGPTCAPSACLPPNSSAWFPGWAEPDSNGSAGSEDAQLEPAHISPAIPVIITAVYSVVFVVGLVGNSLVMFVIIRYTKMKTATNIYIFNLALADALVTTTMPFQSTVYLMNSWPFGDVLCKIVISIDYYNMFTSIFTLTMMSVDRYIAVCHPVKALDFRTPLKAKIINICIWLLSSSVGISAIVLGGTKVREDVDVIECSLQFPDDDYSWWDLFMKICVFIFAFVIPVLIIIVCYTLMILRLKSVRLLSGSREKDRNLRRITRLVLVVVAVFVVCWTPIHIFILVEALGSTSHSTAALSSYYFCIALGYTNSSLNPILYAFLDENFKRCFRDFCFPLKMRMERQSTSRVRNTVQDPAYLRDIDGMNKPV
# Target: Kappa-type opioid receptor (Homo sapiens) (UniProt P41145)
# Assay: kappa opioid receptor activators – cell-based, luminescence, uHTS, primary screen (AID 1777)
# Conditions: KOR beta-arrestin recruitment, at 10 µM, hits give high values
row,Structure (SMILES),activation
1,Cc1ccc(C)c(CN2CCC(n3nnc4cc(F)ccc43)CC2)c1,inactive: 8%
2,Nc1nonc1-c1nc2ccccc2n1CC(=O)N1CCCCC1,inactive: 2.4%
3,COC(=O)c1sccc1NC(=O)Cn1cnc2c1c(=O)n(C)c(=O)n2C,inactive: -3.3%
4,Cn1c(=O)[nH]c(=O)c2c1nc1n2CCN1Cc1ccccc1,inactive: -2.8%
5,N#CCCNC(=O)Cn1c(COc2ccc(Cl)cc2)nc2ccccc21,inactive: -6.3%
6,Cn1ncc([N+](=O)[O-])c1C(=O)Nc1nc2ccccc2n1CCN1CCCCC1,inactive: 5.7%
7,CC#CCCC(=O)N1C=Cc2ccccc2C1C#N (stereo not drawn),inactive: -2.7%
8,CC(=O)N1C2C3N(C(C)=O)C1C1N(C(C)=O)C(C(N1C(C)=O)N3C(C)=O)N2C(C)=O,inactive: 2.7%
9,O=[N+]([O-])c1cccc2n[nH]nc12,inactive: 1.4%
10,CSCC[C@H](NC(=O)N1CCn2c1nc1ccccc12)C(=O)NCc1ccc2c(c1)OCO2,inactive: 0.4%
11,O=S(=O)(c1ccc(Cl)cc1)N1CCn2c1nc1ccccc12,inactive: 4.5%
12,CC(/C=N/NC(=O)Cn1cnc2ccccc21)=C\c1ccccc1,inactive: 1%
13,COc1ccc(Cc2nnc(NC(=O)Cn3cnc4c3c(=O)n(C)c(=O)n4C)s2)cc1OC,inactive: 6.5%
14,CCCn1c(=O)c2c(nc3n2CCN3Cc2ccco2)n(C)c1=O,inactive: -0.2%
15,CCN(CC)CCn1c(=N)n(CC(=O)c2ccc(Br)s2)c2ccccc21,inactive: 1.3%
16,O=S(=O)(c1ccccc1)c1nnn2c1nc(NC1CCN(Cc3ccccc3)CC1)c1cc(Cl)ccc12,inactive: 3.1%
17,CCN(CC)c1ccc(NC(=O)Cn2c(C(C)NC(=O)c3ccc(C)cc3)nc3ccccc32)cc1 (stereo not drawn),inactive: 1%
18,COc1cc(/C=N/NC(=O)Cn2cnc3c2c(=O)n(C)c(=O)n3C)cc(OC)c1OC,inactive: 0.6%
19,O=C(NC1CCCCC1)C(c1ccccc1)N(Cc1ccco1)C(=O)Cn1cnc2ccccc21 (stereo not drawn),inactive: 3.7%
20,CSCC[C@H](NC(=O)N1CCn2c1nc1ccccc12)C(=O)NC1CC1,inactive: -5%
21,CCOc1ccc(NC(=S)N2CCn3c(nc4ccccc43)C2)cc1,inactive: 2.5%
22,CCOc1ccc(CNc2nc3ccccc3n2CCN2CCOCC2)cc1,inactive: -1.3%
23,Cn1c(=O)c2c(nc(CN3CCN(Cc4ccccc4)CC3)n2CCN2CCOCC2)n(C)c1=O,inactive: -1.1%
24,CC(NC(=O)Cn1c(NCCO)nc2ccccc21)c1ccccc1 (stereo not drawn),inactive: -5.5%

row,Structure (SMILES),activation
1,CCC(C)N(C(=O)Cn1c(Cl)nc2c1c(=O)n(C)c(=O)n2C)C1CCS(=O)(=O)C1 (stereo not drawn),inactive: -7.1%
2,Brc1cccc(CNc2nc3ccccc3n2CCN2CCCCC2)c1,inactive: 10.1%
3,O=C(Cn1cnc2ccccc21)Nc1ccccc1-c1ccccc1,inactive: 0.4%
4,COc1ccc(OC)c(CNc2nc3ccccc3n2CCN2CCCCC2)c1,inactive: 1.7%
5,CCSc1nc2ccccc2n1CC(N)=O,inactive: -2%
6,O=C(Cn1cnc2ccccc21)N/N=C/c1ccco1,inactive: 8.9%
7,COCCN1CCn2c(nc3cc(NS(C)(=O)=O)ccc32)C1,inactive: -1.3%
8,COc1ccc(CNc2nc3ccccc3n2CCN2CCCCC2)cc1,inactive: -7.2%
9,Cc1cccc(OCC(O)Cn2c(=N)n(CCN3CCCCC3)c3ccccc32)c1 (stereo not drawn),inactive: -0.5%
10,Cn1c(=O)[nH]c(=O)c2c1nc(N1CCCCCC1)n2CC(N)=O,inactive: -0.8%
11,COc1ccc(-c2nn(-c3ccccc3)cc2C(=O)N2c3ccc(C)cc3C3CN(C)CCC32)cc1 (stereo not drawn),inactive: 1.7%
12,Nc1nonc1-c1nc2ccccc2n1CC(=O)N/N=C/c1ccc(-c2ccccc2C(=O)O)o1,inactive: 9.1%
13,CC(=O)NC(C)c1nc2ccccc2n1CC(=O)NC(C)CCc1ccccc1 (stereo not drawn),inactive: -3.1%
14,CCOC(=O)c1cccc(NC(=O)Cn2cnc3c2c(=O)n(C)c(=O)n3C)c1,inactive: 0.2%
15,Cn1c(=O)c2c(nc(CN3CCN(C(c4ccccc4)c4ccccc4)CC3)n2CC(N)=O)n(C)c1=O,inactive: 3.9%
16,CCc1cccc(C)c1NC(=O)CSc1nc2ccccc2n1CC(=O)N(C)C,inactive: 8.2%
17,COc1ccc(N2CCn3c2nc2c3c(=O)n(CCc3ccccc3)c(=O)n2C)c(OC)c1,inactive: 4.9%
18,CCN1C(=O)CC(n2c(C)nc3ccccc32)C1=O (stereo not drawn),inactive: -10.2%
19,CCc1ccc(NC(=O)Cn2cnc3c(=O)n(C)c(=O)n(C)c32)cc1,inactive: -1.8%
20,CCS(=O)(=O)c1nc2ccccc2n1CC(=O)N1CCCCC1,inactive: -2.6%
21,CCC(C(=O)NC1CCCCC1)n1c(SCc2cccc(F)c2)nc2ccncc21 (stereo not drawn),inactive: -0.5%
22,CC(/C=N/NC(=O)Cn1cnc2c1c(=O)n(C)c(=O)n2C)=C\c1ccccc1,inactive: 0.2%
23,CC(C)C[C@H](NC(=O)N1CCn2c1nc1ccccc12)C(=O)N[C@H](Cc1ccccc1)C(=O)O,inactive: -5.3%
24,CC(C)c1ccccc1NC(=O)Cn1c(-c2ccccc2Cl)nc2ccccc21,inactive: -2.3%

row,Structure (SMILES),activation
1,c1ccc(CNc2nc3ccccc3n2CCN2CCOCC2)nc1,inactive: -9.4%
2,Cn1c(=O)n(CC(=O)N2CCOCC2)c2ccccc21,inactive: 11.2%
3,O=P(Nc1nccs1)(c1ccccc1)c1ccccc1,inactive: 14%
4,CC(C)C(=O)NC(Sc1ccccc1)C(Cl)(Cl)Cl (stereo not drawn),inactive: -3.5%
5,COc1ccc(OCC(O)Cn2c(=N)n(CCN3CCCCC3)c3ccccc32)cc1 (stereo not drawn),inactive: -5.2%
6,N#CCCN1CCn2c1nc1ccccc12,inactive: -4.1%
7,Cn1c(=O)c2ncn(CC(=O)N/N=C/c3ccco3)c2n(C)c1=O,inactive: -5.7%
8,CC1CCCC(C)N1C(=O)Cn1c(SCC(=O)Nc2ccc3c(c2)OCO3)nc2ccccc21 (stereo not drawn),inactive: 1.8%
9,Cn1c(=O)c2c(ncn2CC(=O)N2CCN(S(=O)(=O)c3ccccc3)CC2)n(C)c1=O,inactive: 1.3%
10,c1ccc2c(c1)nc1n2CCN1CCN1CCCC1,inactive: 1.9%
11,CCN(CC)CCn1c(=N)n(CC(O)c2ccc(OC)c(OC)c2)c2ccccc21 (stereo not drawn),inactive: -3.2%
12,O=C(c1cccs1)N1CCn2c1nc1ccccc12,inactive: 6.2%
13,CCN(CC)CCn1c(=N)n(CC(O)COc2cccc(C)c2)c2ccccc21 (stereo not drawn),inactive: 0.1%
14,CC(C)C[C@H](NC(=O)N1CCn2c1nc1ccccc12)C(=O)NC1CC1,inactive: 3.7%
15,CCN(CC)C(=O)CSc1nc2ccccc2n1CC(=O)N1CCN(c2ccccc2OC)CC1,inactive: -0.6%
16,c1nnnn1CCn1cnnn1,inactive: -2%
17,CCC(=O)Nc1cccc(C(=O)/C=C/c2ccccc2)c1,inactive: 2.5%
18,CCN(CC)CCn1c(NCc2nc3ccccc3n2Cc2ccccc2)nc2ccccc21,inactive: 9.7%
19,CCOc1ccc(CCNC(=O)Cn2c(-c3nonc3N)nc3ccccc32)cc1OCC,inactive: -1.3%
20,CSc1nc2ccccc2n1CC(=O)Nc1cc(C(F)(F)F)ccc1N1CCOCC1,inactive: -7%
21,O=C(CCCCCNC(=O)N1CCn2c1nc1ccccc12)NCc1ccccc1,inactive: 10.4%
22,CCNC(=O)Cn1cnc2c1c(=O)n(C)c(=O)n2C,inactive: -5.8%
23,O=C(Cn1c(CO)nc2ccccc21)Nc1cc(C(F)(F)F)ccc1N1CCOCC1,inactive: -3.6%
24,Cc1ccc(NC(=O)Cn2c(/C=C/c3ccccc3)nc3ccccc32)cc1C,inactive: 7.9%

row,Structure (SMILES),activation
1,Cc1ccc(-c2csc(N3CCC[C@@H]3C(=O)NCCn3c(-c4ccncc4)nc4ccccc43)n2)cc1,inactive: -2.1%
2,O=C(Cn1cnc2ccccc21)N/N=C/c1ccccc1,inactive: -4%
3,CCOC(=O)Cn1c(=O)oc2cc(S(=O)(=O)N3CCn4c3nc3ccccc34)ccc21,inactive: -1.9%
4,Cc1nc2ccc(S(=O)(=O)NC(C(=O)N3CCn4c3nc3ccccc34)C(C)C)cc2s1 (stereo not drawn),inactive: 1.8%
5,CCN(CC)CCn1c(NC(=O)c2ccccc2O)nc2ccccc21,inactive: 7%
6,O=[As](O)(c1ccccc1)c1ccc(O)cc1,inactive: 4.2%
7,O=C(Cn1c(=O)n(CC2CS2)c2ccccc21)N1CCCCC1 (stereo not drawn),inactive: 8.6%
8,CCOc1ccc(NC(=O)N2CCC(n3c(=O)[nH]c4ccccc43)CC2)cc1,inactive: 1.2%
9,Cc1nc2cc(C(F)(F)F)ccc2n1C1CCN(Cc2nnnn2Cc2cccs2)CC1,inactive: -2.7%
10,COCC(C)NC(=O)Cn1c(SCc2ccccc2)nc2ccccc21 (stereo not drawn),inactive: 1.4%
11,OC1(c2ccccc2)CCN(Cc2ccccc2)CC1,inactive: -0.2%
12,N=c1n(CCN2CCOCC2)c2ccccc2n1CC(=O)c1ccc(Cl)c(Cl)c1,inactive: -0.8%
13,CCn1nccc1C(=O)Nc1nc2ccccc2n1CCN1CCCCC1,inactive: -2.2%
14,O=[N+]([O-])c1ncn(CCn2cnc([N+](=O)[O-])n2)n1,inactive: 4.5%
15,CC(=O)NC(SC(=S)N(C)C)C(Cl)(Cl)Cl (stereo not drawn),inactive: -1.8%
16,O=[N+]([O-])c1ccc(O)c(/C=N/Nc2ccc([N+](=O)[O-])cc2[N+](=O)[O-])c1,inactive: -4.7%
17,CCOC(=O)C1=C(Cn2cnc3ccccc32)NC(=O)NC1c1cc(C)ccc1C (stereo not drawn),inactive: -3.8%
18,O=C(Nc1cccc(F)c1)N1CCC(n2c(=O)[nH]c3ccccc32)CC1,inactive: 2.7%
19,O=C(OC1CN2CCC1CC2)c1cccc(Cl)c1 (stereo not drawn),inactive: -1.5%
20,CCn1c(N)[n+](CC(=O)Nc2ccc(SC(F)F)cc2)c2ccccc21,inactive: 0.3%
21,CC(C)C[C@H](NC(=O)N1CCn2c1nc1ccccc12)C(=O)N[C@@H](Cc1ccccc1)C(=O)O,inactive: -0.8%

# Source: PubChem BioAssay AID1777 (Sanford-Burnham Center for Chemical Genomics, 2009)
